System: Aldehyde Oxidase
Assay: Aldehyde oxidase assay, liver cytosol
Settings: WT mouse liver cytosol; substrate 25 μM (DMAC), 100 μM (AαC); N.D. = not detected

Aldehyde Oxidase: 783 ± 93 nmol/min/mg protein
Substance: p-dimethylaminocinnamaldehyde [DMAC, reference compound]
